Laboratory results published in ChEMBL document CHEMBL1158362, “4-Phenoxybutoxy-substituted heterocycles--a structure-activity relationship study of blockers of the lymphocyte potassium channel Kv1.3” (Eur J Med Chem, 2009).

Amino acid sequences for entries named in this document (tags omitted).
UniProt P22001, whole entry: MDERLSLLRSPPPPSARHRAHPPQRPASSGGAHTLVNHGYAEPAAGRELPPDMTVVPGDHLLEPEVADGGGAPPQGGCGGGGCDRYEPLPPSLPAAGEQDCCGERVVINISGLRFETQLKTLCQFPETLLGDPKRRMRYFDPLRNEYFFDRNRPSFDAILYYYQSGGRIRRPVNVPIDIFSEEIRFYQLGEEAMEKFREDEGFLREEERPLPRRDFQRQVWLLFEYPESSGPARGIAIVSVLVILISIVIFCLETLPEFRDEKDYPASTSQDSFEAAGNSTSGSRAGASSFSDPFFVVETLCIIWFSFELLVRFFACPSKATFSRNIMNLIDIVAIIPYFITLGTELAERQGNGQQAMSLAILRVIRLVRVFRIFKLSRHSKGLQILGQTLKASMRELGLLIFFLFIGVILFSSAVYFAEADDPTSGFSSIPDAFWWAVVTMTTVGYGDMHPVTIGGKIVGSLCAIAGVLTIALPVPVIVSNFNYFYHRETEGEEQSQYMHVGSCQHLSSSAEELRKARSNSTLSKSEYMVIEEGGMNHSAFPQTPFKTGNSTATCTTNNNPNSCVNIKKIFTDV
UniProt P22460, whole entry: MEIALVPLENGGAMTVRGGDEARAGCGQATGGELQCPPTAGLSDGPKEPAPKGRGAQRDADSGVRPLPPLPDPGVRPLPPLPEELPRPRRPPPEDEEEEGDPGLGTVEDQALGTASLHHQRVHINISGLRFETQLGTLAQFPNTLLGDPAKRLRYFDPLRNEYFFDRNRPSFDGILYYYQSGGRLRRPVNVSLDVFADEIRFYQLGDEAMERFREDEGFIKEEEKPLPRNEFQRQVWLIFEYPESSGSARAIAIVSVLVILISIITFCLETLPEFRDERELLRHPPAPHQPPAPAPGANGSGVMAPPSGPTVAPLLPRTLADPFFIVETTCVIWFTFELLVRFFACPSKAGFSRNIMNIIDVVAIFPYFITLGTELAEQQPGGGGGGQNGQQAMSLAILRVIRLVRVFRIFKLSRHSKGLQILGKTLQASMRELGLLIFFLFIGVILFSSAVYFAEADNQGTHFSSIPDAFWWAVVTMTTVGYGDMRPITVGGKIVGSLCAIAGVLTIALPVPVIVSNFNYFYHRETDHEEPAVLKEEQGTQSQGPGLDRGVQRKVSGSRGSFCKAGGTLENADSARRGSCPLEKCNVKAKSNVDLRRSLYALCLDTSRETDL

Assays:
[1] = molecular target: Potassium voltage-gated channel subfamily A member 3 (Homo sapiens, UniProt P22001); experiment: Inhibition of Kv1.3 potassium channel expressed in mouse L929 cells by whole cell patch clamp; type: cell-based
Method in brief: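 Currents were evoked by 500 ms pulses to 40 mV every 45 s. Each compound was run three times at 4–5 concentrations, each on a different cell. IC50 came from a Hill fit of the reduction in area under the current curve.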

[2] = molecular target: Potassium voltage-gated channel subfamily A member 5 (Homo sapiens) (UniProt P22460); experiment: Inhibition of Kv1.5 potassium channel by whole cell patch clamp
Method in brief: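 Currents were recorded by whole-cell patch clamp from MEL-C88 cells. Each compound was tested three times at 4–5 concentrations, each experiment on a different cell. IC50 came from a Hill-equation fit of the reduction in area under the current curve.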

IC50 [1] [nM] | IC50 [2] [µM] | Structure (SMILES)
200 |  | COc1ccc2c(OCCCCOc3ccccc3)c3ccoc3nc2c1OC
520 | 0.52 | c1ccc(OCCCCOc2cccc3cnccc23)cc1
6000 | 6 | Cc1cc(=O)c2c(OCCCCOc3ccccc3)c3ccc(=O)oc3cc2o1
5000 |  | Cc1cc(=O)c2c(OCCCCOc3ccccc3)c3c(cc2o1)OCO3
